Drawing on US11306156, this text covers % H2L2 Pairing (over all H2 species) for 3 substances.

Assay [1] concerns the target Cetuximab full-length IgG1 heavy chain (H2 of the wild-type trastuzumab/cetuximab bispecific system). As to the kind of experiment: SMCA: co-expression of H1, H2, L1, L2 in CHO cells, protein A purification, LC-MS; competing light chain: trastuzumab LC (untagged).
The target is the same in assay [2]. As to the kind of experiment: SMCA: co-expression of H1, H2, L1, L2 in CHO cells, protein A purification, LC-MS; competing light chain: FLAG-trastuzumab LC.

Where “and” joins values, the source holds several entries; their conditions need not be identical. Equal entries are not always repeated.

Turning to “Cetuximab light chain with N-terminal FLAG tag”, the % H2L2 Pairing (over all H2 species) in assay [1] is 29.6% and 29.4% and 24.6%. For “Cetuximab light chain with N-terminal HA tag”, the % H2L2 Pairing (over all H2 species) in assay [1] was 21.5% and 22.5% and 18.7%. As for Cetuximab light chain, untagged, the % H2L2 Pairing (over all H2 species) in assay [2] was 60.3% and 60.8% and 60.1%.
